The source of these data is US20090036485A1, “Quinoline derivatives” (priority 2004, published 2009).

Protein sequences, listed by entry. Tags and fused reporters are not part of them. Residues count along the entry.
UniProt P35968, 786-1356 limits assumed: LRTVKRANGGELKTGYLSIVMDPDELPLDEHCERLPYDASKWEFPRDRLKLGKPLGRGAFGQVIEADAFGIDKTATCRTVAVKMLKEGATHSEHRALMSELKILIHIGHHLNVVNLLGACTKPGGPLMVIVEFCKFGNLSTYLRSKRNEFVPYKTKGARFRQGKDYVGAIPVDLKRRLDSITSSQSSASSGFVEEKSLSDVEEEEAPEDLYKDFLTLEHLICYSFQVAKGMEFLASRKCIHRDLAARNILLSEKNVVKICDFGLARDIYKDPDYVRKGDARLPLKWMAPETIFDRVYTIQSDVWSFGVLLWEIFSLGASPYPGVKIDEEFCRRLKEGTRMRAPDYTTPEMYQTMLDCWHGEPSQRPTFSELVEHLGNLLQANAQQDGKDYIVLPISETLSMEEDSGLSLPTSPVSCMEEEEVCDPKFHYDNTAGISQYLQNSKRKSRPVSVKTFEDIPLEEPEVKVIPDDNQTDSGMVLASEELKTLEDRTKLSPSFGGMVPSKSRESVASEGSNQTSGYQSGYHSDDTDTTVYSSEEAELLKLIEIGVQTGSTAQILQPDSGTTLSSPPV
UniProt P09619, 33-1106 limits assumed: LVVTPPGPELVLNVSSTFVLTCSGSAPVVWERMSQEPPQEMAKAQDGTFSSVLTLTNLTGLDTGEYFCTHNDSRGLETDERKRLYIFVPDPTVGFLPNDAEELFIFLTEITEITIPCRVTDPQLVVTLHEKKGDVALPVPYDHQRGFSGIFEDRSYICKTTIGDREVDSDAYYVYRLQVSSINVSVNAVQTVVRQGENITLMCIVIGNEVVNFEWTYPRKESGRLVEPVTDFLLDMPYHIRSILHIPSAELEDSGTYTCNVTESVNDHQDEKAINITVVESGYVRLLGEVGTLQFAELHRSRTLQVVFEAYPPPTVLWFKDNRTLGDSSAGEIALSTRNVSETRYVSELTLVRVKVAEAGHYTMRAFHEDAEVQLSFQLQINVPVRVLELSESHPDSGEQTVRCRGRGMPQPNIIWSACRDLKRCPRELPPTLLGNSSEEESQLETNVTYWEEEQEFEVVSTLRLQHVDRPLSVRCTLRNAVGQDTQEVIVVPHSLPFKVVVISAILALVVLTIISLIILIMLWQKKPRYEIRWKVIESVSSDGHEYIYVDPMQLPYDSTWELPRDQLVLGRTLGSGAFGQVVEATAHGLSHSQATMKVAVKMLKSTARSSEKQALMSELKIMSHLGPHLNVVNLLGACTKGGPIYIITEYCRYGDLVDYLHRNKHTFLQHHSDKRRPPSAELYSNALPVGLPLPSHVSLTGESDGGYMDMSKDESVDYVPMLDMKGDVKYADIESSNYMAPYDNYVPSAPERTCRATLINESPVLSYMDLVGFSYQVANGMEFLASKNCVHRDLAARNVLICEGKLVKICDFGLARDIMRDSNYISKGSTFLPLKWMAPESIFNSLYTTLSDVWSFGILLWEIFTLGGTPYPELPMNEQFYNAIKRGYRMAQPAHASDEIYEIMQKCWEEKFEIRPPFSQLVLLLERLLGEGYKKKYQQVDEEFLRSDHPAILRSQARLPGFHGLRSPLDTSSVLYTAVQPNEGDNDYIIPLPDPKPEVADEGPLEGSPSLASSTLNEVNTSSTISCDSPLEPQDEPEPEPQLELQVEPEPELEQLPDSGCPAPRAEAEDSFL
UniProt P09619, 554-1106 limits assumed: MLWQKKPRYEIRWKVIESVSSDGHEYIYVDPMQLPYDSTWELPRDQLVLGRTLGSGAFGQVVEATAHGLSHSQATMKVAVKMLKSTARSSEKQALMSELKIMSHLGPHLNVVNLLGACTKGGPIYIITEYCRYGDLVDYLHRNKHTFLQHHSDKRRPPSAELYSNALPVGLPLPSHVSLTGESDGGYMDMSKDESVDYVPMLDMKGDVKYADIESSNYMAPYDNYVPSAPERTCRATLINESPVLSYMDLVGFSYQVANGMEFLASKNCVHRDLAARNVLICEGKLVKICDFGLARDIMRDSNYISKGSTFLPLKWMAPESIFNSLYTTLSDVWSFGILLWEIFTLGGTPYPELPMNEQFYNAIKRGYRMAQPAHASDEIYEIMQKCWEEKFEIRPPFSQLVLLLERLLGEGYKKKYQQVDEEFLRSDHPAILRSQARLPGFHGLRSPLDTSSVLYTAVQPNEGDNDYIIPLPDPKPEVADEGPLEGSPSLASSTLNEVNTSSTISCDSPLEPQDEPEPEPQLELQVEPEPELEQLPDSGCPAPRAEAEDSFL
UniProt P16234, 550-1089 limits assumed: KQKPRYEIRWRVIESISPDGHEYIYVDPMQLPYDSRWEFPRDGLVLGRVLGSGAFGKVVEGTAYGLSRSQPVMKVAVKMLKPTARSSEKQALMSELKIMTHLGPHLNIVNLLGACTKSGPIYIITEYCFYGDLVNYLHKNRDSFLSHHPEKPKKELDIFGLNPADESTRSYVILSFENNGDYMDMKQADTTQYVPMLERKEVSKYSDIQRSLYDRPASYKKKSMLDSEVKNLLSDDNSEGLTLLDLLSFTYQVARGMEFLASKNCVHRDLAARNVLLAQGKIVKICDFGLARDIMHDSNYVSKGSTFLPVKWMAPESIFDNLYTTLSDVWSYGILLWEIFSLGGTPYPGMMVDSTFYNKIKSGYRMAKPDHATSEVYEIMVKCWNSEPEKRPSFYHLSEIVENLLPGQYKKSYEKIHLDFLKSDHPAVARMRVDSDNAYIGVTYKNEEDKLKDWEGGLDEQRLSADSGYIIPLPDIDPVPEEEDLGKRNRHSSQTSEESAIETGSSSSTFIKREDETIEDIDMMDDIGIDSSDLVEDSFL

Each structure is given as a SMILES string.

The target in one test is KDR tyrosine kinase (Homo sapiens, UniProt P35968). Briefly: In vitro enzyme assay (ELISA), KDR tyrosine kinase. The note with it: read-out: IC50 versus KDR tyrosine kinase; Test (a); ATP 8 μM. In general terms: ELISA stands for enzyme-linked immunosorbent assay.
The target in another test is phospho-Tyr751 PDGFRβ (Homo sapiens, UniProt P09619). Briefly: In vitro phospho-Tyr751 PDGFRβ ELISA assay in MG63 osteosarcoma cells. As to conditions: read-out: IC50 versus phospho-Tyr751 PDGFRβ; Test (b); MG63 cells stimulated with PDGFBB.
The next test deals with PDGFRβ tyrosine kinase (Homo sapiens, UniProt P09619). Briefly: In vitro enzyme assay (ELISA), PDGFRβ tyrosine kinase. It is filed as biochemical. The note with it: read-out: IC50 versus PDGFRβ tyrosine kinase; Test (a); ATP 2.8 μM.
The next test addresses PDGFRα tyrosine kinase (Homo sapiens, UniProt P16234). Briefly: In vitro enzyme assay (ELISA), PDGFRα tyrosine kinase. The note with it: read-out: IC50 versus PDGFRα tyrosine kinase; Test (a); ATP 14 μM. The method, then:
The ability of test compounds to inhibit the phosphorylation of a tyrosine containing polypeptide substrate by the tyrosine kinase enzymes PDGFRα, PDGFRβ and KDR was assessed using conventional ELISA assays.
DNA encoding the PDGFRα, PDGFRβ or KDR receptor cytoplasmic domains may be obtained by total gene synthesis (International Biotechnology Lab., 1987, 5(3), 19-25) or by cloning. The DNA fragments may be expressed in a suitable expression system to obtain polypeptide with tyrosine kinase activity. For example, PDGFRα, PDGFRβ and KDR receptor cytoplasmic domains, obtained by expression of recombinant protein in insect cells, can be shown to display intrinsic tyrosine kinase activity. In the case of the VEGF receptor KDR (Genbank Accession No. L04947), a DNA fragment encoding most of the cytoplasmic domain, commencing with methionine 806 and including the termination codon may be cloned into a baculovirus transplacement vector [for example pAcYM1 (see The Baculovirus Expression System: A Laboratory Guide, L. A. King and R. D. Possee, Chapman and Hall, 1992) or pAc360 or pBlueBacHis (available from Invitrogen Corporation)]. This recombinant construct may be co-transfected into insect cells [for example Spodoptera frugiperda 21(Sf21) or Spodoptera frugiperda 9(Sf9)] with viral DNA (for example Pharmingen BaculoGold) to prepare recombinant baculovirus. […]

The IC50 is the midpoint of a concentration-inhibition curve.

With `COc1cc2nccc(Oc3cnn(CC(=O)Nc4ccc(N(C)C)cn4)c3)c2cc1C#N`, the figures for the IC50 on KDR tyrosine kinase and at phospho-Tyr751 PDGFRβ were 3000 nM and 10 nM, respectively.

In the case of `COc1cc2nccc(Oc3cnn(CC(=O)Nc4cccc(N(C)C)c4)c3)c2cc1OC`, the IC50 was 1300 nM at KDR tyrosine kinase, 20 nM at PDGFRβ tyrosine kinase, 100 nM on PDGFRα tyrosine kinase and < 1 nM at phospho-Tyr751 PDGFRβ.
